In patent US20150004134A1, “TREATMENT OF CANCER WITH HETEROCYCLIC INHIBITORS OF GLUTAMINASE” (Calithera Biosciences, Inc., priority 2012, published 2015):

System: P493-6 (myc "on") cells
Assay: Cell Proliferation Assay
Type: cell-based
Conditions: P493-6, 72 h, read-out: Cell prolif P493 72 h IC50, P493 cells, 72 h
Protocol: P493-6 (myc “on”) cells were maintained in growth media (RPMI-1640, 10% FBS, 2 mM glutamine, 100 units/ml Penicillin and 100 μg/ml streptomycin) at 37° C. with 5% CO2. For compound assay, P493-6 cells were plated in 96-well V-bottom plates on the day of compound addition in 50 μl of growth media at a cell density of 200,000 cells/ml (10,000 cells/well). Compounds were serially diluted in 100% DMSO at 200-times the final concentration. Compounds were diluted 100-fold into growth media and then 50 μl of this mixture was added to cell plates making the final concentration of DMSO 0.5%. Cells were incubated with compound for 72 hrs at 37° C. with 5% CO2 and analyzed for antiproliferative effects either by Cell Titer Glo (Promega) or FACS analysis using the Viacount (Millipore) kit on the Guava instrument.

O=C(Cc1ccccc1)Nc1ccc(CCCCc2nnc(NC(=O)[C@H](O)c3ccccc3)s2)nn1 [Compound 349]
pIC50: 6.92

pIC50: −log10 of the molar value.
